# According to PubChem BioAssay AID411 (National Center for Advancing Translational Sciences (NCATS), 2006):
# Amino acid sequences for entries named in this document (tags omitted).
# UniProt P08659, whole entry: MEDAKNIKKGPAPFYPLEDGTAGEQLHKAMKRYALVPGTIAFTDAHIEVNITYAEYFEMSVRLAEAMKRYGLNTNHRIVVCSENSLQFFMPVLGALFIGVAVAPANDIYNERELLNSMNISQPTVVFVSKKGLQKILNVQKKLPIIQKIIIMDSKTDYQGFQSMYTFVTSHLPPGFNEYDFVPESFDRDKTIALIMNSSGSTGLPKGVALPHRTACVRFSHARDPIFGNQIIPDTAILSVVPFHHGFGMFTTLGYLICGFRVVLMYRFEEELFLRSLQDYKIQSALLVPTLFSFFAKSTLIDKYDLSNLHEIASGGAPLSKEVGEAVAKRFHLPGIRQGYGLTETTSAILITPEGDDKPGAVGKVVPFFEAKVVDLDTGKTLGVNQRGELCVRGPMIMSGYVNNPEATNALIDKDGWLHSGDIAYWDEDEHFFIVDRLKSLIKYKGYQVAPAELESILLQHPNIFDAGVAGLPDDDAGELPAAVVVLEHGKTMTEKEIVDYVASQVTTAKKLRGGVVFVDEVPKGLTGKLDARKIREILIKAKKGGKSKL
# Only a part is listed here, and it is no random draw. Calls of active or inactive are those of the source. Calls come from the whole dose curve; as a rule, active = well fitted inhibition curve with a large enough effect; inconclusive = small, poorly fitted or top-dose-only effect; inactive = flat fitted curve, though single readings scatter.
# Target: Luciferin 4-monooxygenase (Photinus pyralis) (UniProt P08659)
# Assay: qHTS Assay for Inhibitors of Firefly Luciferase; note: nearly all actives have a fitted effect of over 40% in size
# Conditions: purified firefly luciferase, luminescence, 8 min; at 57.1 µM (top of the series) unless noted
# Procedure: To aid in the interpretation of high-throughput screening (HTS) results derived from luciferase-based assays, we used quantitative HTS, an approach that defines the concentration-response behavior of each library sample, to profile the ATP-dependent luciferase from Photinus pyralis against more than 72 000 samples. Luciferase (PKLight, Cambrex Corporation) was assayed for its ability to generate light using ATP and luciferin as substrates. The ATP concentration in the assay (10 uM) was within the linear range of enzyme activity for the assay conditions used. See following reference for further details: [1] Auld DS, Southall NT, Jadhav A, Johnson RL, Diller DJ, Simeonov A, Austin CP, Inglese J. Characterization of chemical libraries for luciferase inhibitory activity. J Med Chem. 2008 Apr 24;51(8):2372-86. Auld DS, Zhang YQ, Southall NT, Rai G, Landsman M, Maclure J, Langevin D, Thomas CJ, Austin CP, Inglese J. A Basis for Reduced Chemical Library Inhibition of Firefly Luciferase Obtained from Directed Evolution. J. Med. Chem., 2009, 52 (5), pp 1450#1458 [3] Auld DS, Thorne N, Nguyen DT, Inglese J. A specific mechanism for nonspecific activation in reporter-gene assays. ACS Chem Biol. 2008 Aug 15;3(8):463-70. Auld DS, Thorne N, Maguire WF, Inglese J. Mechanism of PTC124 activity in cell-based luciferase assays of nonsense codon suppression. Proc Natl Acad Sci U S A. 2009 Mar 3;106(9):3585-90. Inglese J, Auld DS, Jadhav A, Johnson RL, Simeonov A, Yasgar A, Zheng W, Austin CP. Quantitative high-throughput screening: a titration-based approach that efficiently identifies biological activities in large chemical libraries. Proc Natl Acad Sci U S A. 2006 Aug 1;103(31):11473-8.
# Four uL of substrate mix (final concentration, 50 mM imidazole pH 7.2, 50 mM KCl, 7 mM MgCl2, 10 uM ATP, 0.01% Tween 20, 0.05% BSA) was dispensed into white 1536 well plates. Twenty-three nL of compound was delivered by a pin tool and 2 uL of luciferase detector mix (PKLight, Cambrex) was added. Following 8-minute incubation at ambient temperature, luminescence was measured by a ViewLux (Perkin Elmer) at 5 seconds exposure/plate.
# % is set by controls: 0 for no effect and ±100 for the full control effect.
row,Structure (SMILES),"activity change, negative = inhibition"
1,NC1CCCCC1.NP(=O)(O)N(CCCl)CCCl,inactive: 2.96% [at 11.4 µM]
2,N#CC1(Nc2ccccc2)CCN(CCc2ccccc2)CC1,inactive: -0.613%
3,O=C(OC1CN2CCC1CC2)C1c2ccccc2Oc2ccccc21 (configuration not stated),inactive: -1.76%
4,CCOc1ncccc1C(=O)NCC1(N2CCOCC2)CCCCC1,inactive: 1.06%
5,O=C(O)C1(Nc2ccccc2)CCN(Cc2ccccc2)CC1,inactive: 3.73% [at 11.4 µM]
6,Fc1ccccc1NC1CCN(Cc2ccccc2)CC1,inactive: 0.264%
7,N/C(=N\O)c1c(N)no[n+]1[O-],inactive: 2.47%
